Experimental data: US20250277029A1, “CANNABINOID TYPE 1 RECEPTOR BINDING PROTEINS AND USES THEREOF” (AMGEN INC., priority 2022, published 2025)
Substitutions are numbered along the chain they refer to.

B1: LIBC529593-1 (Fab) (Fab, V domains shown)
VH: QVQLQESGPGLVKPSQTLSLTCTVSGGSIRRGGDYWSWIRQHPGKGLEWIGHIYYSGSTNYNPSLRSRVRISVDTSKNQFSLKLSSVTAADTAVYYCARDYDILTGYSYYYYGLDVWGQGTTVTVSS
VL: DIVMTQSPLSLPVTPGEPASISCRSSQSLLHRSGYNYLDWYLQKPGQSPQLLIYLGSNRASGVPDRFSGSGSGTDFTLKISRVEAEDVGVYYCMQSLQTPRTFGQGTKVEIKR
B2: LIBC673948-1 (Fab on yeast) (Fab, V domains shown)
VH: QVQLQESGPGLVKPSQTLSLTCTVSGGSIRRGGDYWSWIRQHPGKGLEWIGHIYYTGSTKYNPSLKNRVRISVNTYKNQFSLKLSSVTAADTAVYYCARGYDVSGYSYYYYGLDVWGQGTTVTVSS
VL: B1 VL
B3: LIBC673965-1 (Fab on yeast) (Fab, V domains shown)
VH: B2 VH with I53V, S58Q, K60A, K66R, N67G, V103T
VL: B1 VL
B4: LIBC673982-1 (Fab on yeast) (Fab, V domains shown)
VH: B2 VH with K60T, L65F, K66R, N67G, G100D, V103I, L113M
VL: B1 VL with M94R, L97V, Q98A, T99L
B5: LIBC673972-1 (Fab on yeast) (Fab, V domains shown)
VH: B2 VH with S58Q, K60A, S64N, K66R, V103A
VL: B1 VL
B6: LIBC674024-1 (Fab on yeast) (Fab, V domains shown)
VH: B2 VH with I53V, Y55Q, L65F
VL: B1 VL
B7: LIBC674035-1 (Fab on yeast) (Fab, V domains shown)
VH: B2 VH with T56A, S58Q, L65F, V103I
VL: B1 VL
B8: LIBC674043-1 (Fab on yeast) (Fab, V domains shown)
VH: B2 VH with S58Q, K60T, S64N, L65F, N67G, V103A, L113M, S126R
VL: B1 VL
B9: LIBC674002-1 (Fab on yeast) (Fab, V domains shown)
VH: B2 VH with T56K, K60E, K66R, N67G
VL: B1 VL
B10: LIBC674153-1 (Fab on yeast) (Fab, V domains shown)
VH: B2 VH with I53V, K60A, L65F, K66R, N67G, V103T
VL: B1 VL
B11: LIBC674214-1 (Fab on yeast) (Fab, V domains shown)
VH: B2 VH with I53V, T56E, L65F, K66R, N67G
VL: B1 VL
B12: LIBC674216-1 (Fab on yeast) (Fab, V domains shown)
VH: B2 VH with S58Q, K60A, K66R, V103I
VL: B1 VL
B13: LIBC674235-1 (Fab on yeast) (Fab, V domains shown)
VH: B2 VH with I53V, T56A, K60T, N67S
VL: B1 VL
B14: LIBC674257-1 (Fab on yeast) (Fab, V domains shown)
VH: B2 VH with S58Q, K66R, N67G, V103I
VL: B1 VL
B15: LIBC674276-1 (Fab on yeast) (Fab, V domains shown)
VH: B2 VH with I53V, K60T, S64N, L65F, N67G, V103A
VL: B1 VL

molecular target: T1, XCR1-SMALP; assay: flow cytometry, yeast-displayed Fab, 50 nM XCR1 SMALP
T1 sequence (P46094 whole entry, species assumed, looked up): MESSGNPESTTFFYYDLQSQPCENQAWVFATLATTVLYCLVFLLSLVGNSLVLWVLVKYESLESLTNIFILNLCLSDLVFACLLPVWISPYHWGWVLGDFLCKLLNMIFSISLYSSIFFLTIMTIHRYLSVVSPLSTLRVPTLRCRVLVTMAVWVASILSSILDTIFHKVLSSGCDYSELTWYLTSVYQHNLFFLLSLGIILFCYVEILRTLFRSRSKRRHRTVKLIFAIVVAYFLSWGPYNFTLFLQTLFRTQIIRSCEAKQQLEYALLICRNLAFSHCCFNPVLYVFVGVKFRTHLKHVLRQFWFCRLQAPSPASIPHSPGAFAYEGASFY

How did the relative binding fold change compared to LIBC523797-1(Fab) turn out when B1 was run?
Its relative binding fold change compared to LIBC523797-1(Fab) is 1.5 fold.

How did the relative binding fold change compared to LIBC523797-1(Fab) turn out when B2 was run?
The relative binding fold change compared to LIBC523797-1(Fab) was 0.88 fold.

With B3 as the binder, how does the relative binding fold change compared to LIBC523797-1(Fab) read?
The relative binding fold change compared to LIBC523797-1(Fab) was 0.74 fold.

With B4 as the binder, how does the relative binding fold change compared to LIBC523797-1(Fab) read?
The relative binding fold change compared to LIBC523797-1(Fab) was 0.79 fold.

With B5 as the binder, how does the relative binding fold change compared to LIBC523797-1(Fab) read?
Its relative binding fold change compared to LIBC523797-1(Fab) is 0.8 fold.

With B6 as the binder, how does the relative binding fold change compared to LIBC523797-1(Fab) read?
Its relative binding fold change compared to LIBC523797-1(Fab) is 0.86 fold.

Which relative binding fold change compared to LIBC523797-1(Fab) does the source give for B7 here?
The relative binding fold change compared to LIBC523797-1(Fab) was 0.91 fold.

Which relative binding fold change compared to LIBC523797-1(Fab) does the source give for B8 here?
The relative binding fold change compared to LIBC523797-1(Fab) was 0.62 fold.

B9 was tested. Which relative binding fold change compared to LIBC523797-1(Fab) did it give?
The relative binding fold change compared to LIBC523797-1(Fab) was 0.91 fold.

With B10 as the binder, how does the relative binding fold change compared to LIBC523797-1(Fab) read?
Its relative binding fold change compared to LIBC523797-1(Fab) is 0.68 fold.

Which relative binding fold change compared to LIBC523797-1(Fab) does the source give for B11 here?
The relative binding fold change compared to LIBC523797-1(Fab) was 0.68 fold.

Which relative binding fold change compared to LIBC523797-1(Fab) does the source give for B12 here?
The relative binding fold change compared to LIBC523797-1(Fab) was 0.52 fold.

Which relative binding fold change compared to LIBC523797-1(Fab) does the source give for B13 here?
Its relative binding fold change compared to LIBC523797-1(Fab) is 0.68 fold.

For B14, which relative binding fold change compared to LIBC523797-1(Fab) is on record?
The relative binding fold change compared to LIBC523797-1(Fab) was 0.77 fold.

For B15, which relative binding fold change compared to LIBC523797-1(Fab) is on record?
Its relative binding fold change compared to LIBC523797-1(Fab) is 0.54 fold.
